# Values of other authors as cited in patent publication US9420796B2 (priority 2013, dated 2016).
# Test system: zebra mussels
# Conditions: in vivo; cited from earlier work
substance,measurement,value
sodium chlorite [NaClO2],Mortality rate,≤ 10%
